By UniProt entry, the sequences of proteins in these tests, tags left out. Residues count along the entry.
UniProt Q07954, 805-1184 limits assumed: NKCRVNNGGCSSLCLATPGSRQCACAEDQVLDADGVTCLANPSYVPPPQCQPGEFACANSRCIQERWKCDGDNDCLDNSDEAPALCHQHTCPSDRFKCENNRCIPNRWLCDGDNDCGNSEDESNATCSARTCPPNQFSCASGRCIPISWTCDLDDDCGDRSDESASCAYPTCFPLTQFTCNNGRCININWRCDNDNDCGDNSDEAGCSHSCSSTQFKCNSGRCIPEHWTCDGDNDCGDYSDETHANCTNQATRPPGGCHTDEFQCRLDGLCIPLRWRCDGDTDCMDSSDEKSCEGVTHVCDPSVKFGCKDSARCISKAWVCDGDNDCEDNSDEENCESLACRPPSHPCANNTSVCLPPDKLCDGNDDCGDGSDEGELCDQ
UniProt Q07954, 20-4544 limits assumed: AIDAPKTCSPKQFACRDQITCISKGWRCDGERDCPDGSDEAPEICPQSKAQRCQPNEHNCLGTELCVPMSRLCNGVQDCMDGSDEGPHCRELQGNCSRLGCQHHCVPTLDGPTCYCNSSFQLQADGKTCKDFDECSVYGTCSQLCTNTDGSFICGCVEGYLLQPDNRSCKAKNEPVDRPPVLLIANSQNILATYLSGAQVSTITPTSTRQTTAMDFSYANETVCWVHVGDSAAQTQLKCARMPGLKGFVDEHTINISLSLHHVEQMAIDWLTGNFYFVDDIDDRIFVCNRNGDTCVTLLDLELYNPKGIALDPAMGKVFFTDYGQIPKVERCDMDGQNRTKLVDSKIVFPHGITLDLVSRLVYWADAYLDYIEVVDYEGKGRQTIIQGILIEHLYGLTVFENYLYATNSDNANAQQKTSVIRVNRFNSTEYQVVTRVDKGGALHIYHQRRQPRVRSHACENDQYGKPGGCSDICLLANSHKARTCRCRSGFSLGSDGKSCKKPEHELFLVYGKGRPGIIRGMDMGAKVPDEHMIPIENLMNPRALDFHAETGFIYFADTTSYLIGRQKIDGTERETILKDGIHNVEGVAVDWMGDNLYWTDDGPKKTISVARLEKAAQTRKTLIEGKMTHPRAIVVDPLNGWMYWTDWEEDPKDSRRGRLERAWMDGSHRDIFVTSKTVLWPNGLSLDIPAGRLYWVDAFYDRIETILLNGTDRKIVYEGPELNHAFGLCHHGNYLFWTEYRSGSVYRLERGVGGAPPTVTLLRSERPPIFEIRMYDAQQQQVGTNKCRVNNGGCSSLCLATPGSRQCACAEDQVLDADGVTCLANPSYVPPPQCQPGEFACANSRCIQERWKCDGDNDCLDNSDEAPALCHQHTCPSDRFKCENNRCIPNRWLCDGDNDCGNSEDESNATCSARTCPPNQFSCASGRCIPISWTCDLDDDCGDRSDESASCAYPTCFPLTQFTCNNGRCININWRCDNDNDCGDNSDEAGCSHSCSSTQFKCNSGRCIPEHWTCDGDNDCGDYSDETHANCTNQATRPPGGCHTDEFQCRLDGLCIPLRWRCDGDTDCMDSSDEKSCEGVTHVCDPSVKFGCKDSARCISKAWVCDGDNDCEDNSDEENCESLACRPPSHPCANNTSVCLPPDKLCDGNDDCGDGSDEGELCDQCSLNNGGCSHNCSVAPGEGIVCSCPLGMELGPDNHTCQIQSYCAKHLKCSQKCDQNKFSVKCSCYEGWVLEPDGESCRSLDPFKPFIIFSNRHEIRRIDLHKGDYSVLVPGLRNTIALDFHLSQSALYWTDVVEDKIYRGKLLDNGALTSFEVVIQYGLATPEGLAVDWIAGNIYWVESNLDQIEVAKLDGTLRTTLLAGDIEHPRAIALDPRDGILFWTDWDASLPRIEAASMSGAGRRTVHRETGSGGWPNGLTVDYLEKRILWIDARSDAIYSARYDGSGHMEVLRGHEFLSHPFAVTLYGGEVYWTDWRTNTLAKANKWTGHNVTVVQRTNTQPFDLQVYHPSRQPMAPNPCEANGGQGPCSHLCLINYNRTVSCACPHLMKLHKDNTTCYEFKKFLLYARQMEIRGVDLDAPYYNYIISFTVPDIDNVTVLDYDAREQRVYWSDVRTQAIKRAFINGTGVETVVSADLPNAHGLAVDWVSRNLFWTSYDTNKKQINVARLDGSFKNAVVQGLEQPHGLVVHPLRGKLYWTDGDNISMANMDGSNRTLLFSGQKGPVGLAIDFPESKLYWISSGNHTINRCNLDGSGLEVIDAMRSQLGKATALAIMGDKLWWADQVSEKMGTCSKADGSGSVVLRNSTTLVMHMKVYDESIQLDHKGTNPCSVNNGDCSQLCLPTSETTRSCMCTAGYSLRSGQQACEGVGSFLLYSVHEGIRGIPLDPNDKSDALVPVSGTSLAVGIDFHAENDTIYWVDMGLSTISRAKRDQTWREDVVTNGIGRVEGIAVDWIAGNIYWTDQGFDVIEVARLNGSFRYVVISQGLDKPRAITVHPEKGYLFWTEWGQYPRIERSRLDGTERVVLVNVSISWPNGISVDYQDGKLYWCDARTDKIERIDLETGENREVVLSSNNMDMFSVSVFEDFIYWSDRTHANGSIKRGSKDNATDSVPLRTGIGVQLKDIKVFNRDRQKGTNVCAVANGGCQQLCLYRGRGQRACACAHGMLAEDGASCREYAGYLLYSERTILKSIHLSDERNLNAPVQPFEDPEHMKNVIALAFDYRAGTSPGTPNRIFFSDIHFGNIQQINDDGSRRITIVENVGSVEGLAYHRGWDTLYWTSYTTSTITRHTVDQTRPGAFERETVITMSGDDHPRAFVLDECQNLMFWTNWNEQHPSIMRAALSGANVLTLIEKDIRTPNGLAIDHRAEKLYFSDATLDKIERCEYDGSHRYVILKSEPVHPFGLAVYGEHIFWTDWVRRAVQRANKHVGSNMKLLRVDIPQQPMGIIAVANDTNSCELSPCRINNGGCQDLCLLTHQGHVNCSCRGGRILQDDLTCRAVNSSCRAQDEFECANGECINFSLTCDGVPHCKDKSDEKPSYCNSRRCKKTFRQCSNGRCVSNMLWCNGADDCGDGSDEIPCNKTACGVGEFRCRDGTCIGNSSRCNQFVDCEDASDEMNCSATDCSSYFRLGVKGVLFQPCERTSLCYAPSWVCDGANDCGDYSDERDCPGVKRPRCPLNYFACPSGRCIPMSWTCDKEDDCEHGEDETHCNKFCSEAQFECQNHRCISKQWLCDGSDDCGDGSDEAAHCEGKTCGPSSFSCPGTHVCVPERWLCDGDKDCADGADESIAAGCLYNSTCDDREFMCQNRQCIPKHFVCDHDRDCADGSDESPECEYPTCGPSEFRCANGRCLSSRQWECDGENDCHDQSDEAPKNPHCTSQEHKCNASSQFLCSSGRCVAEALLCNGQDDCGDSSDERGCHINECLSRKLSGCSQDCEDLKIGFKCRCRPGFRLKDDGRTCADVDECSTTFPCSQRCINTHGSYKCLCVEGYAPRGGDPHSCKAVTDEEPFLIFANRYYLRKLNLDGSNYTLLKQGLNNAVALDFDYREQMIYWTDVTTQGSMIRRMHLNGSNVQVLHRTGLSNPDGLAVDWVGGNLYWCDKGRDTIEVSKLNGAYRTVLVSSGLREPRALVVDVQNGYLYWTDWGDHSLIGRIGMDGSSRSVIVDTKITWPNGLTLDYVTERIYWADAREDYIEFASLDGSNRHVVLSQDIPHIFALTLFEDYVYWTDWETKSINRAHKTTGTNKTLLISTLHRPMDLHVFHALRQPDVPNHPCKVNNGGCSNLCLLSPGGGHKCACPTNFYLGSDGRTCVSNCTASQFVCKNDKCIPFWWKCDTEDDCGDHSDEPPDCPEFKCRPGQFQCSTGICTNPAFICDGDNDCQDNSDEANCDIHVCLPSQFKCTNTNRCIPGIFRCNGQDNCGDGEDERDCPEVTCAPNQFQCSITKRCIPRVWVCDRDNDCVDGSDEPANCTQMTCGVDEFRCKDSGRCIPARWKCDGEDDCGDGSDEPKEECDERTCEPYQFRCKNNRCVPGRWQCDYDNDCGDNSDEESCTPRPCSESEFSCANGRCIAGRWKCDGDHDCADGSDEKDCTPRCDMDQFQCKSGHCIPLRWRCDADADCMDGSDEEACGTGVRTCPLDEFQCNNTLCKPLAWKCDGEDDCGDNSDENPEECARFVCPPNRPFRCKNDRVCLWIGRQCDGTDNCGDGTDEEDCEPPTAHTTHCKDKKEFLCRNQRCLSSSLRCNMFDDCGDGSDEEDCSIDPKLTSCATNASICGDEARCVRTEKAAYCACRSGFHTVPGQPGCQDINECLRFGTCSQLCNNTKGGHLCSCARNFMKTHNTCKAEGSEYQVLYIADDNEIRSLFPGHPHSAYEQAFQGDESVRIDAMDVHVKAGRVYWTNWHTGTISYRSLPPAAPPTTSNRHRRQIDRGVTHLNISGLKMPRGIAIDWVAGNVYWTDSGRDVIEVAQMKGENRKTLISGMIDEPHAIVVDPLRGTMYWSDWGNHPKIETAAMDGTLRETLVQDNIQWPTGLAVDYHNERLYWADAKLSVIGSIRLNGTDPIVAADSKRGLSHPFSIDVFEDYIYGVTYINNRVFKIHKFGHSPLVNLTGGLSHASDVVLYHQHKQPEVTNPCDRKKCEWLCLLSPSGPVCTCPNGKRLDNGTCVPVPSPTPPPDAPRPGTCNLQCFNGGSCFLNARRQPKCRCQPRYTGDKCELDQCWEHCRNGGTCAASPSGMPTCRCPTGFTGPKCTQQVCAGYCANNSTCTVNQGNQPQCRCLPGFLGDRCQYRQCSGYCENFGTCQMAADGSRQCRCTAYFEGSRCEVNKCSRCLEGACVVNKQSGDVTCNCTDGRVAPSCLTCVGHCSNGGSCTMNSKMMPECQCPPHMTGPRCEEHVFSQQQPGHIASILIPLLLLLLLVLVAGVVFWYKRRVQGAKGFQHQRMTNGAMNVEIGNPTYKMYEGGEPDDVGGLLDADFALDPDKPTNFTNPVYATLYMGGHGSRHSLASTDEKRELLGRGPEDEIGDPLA
UniProt Q07954, 2481-2942 limits assumed: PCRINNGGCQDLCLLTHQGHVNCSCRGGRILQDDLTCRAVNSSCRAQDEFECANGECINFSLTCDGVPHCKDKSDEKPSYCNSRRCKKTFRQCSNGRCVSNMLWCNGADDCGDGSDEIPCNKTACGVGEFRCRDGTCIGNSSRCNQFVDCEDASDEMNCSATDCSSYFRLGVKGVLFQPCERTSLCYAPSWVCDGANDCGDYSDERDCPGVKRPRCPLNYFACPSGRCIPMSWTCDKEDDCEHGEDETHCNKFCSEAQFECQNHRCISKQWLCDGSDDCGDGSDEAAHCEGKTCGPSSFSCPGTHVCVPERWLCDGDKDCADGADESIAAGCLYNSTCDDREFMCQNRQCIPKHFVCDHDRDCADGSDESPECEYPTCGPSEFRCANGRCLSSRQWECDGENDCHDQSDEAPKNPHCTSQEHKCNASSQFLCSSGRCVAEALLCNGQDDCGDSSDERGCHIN
UniProt Q07954, 3293-3783 limits assumed: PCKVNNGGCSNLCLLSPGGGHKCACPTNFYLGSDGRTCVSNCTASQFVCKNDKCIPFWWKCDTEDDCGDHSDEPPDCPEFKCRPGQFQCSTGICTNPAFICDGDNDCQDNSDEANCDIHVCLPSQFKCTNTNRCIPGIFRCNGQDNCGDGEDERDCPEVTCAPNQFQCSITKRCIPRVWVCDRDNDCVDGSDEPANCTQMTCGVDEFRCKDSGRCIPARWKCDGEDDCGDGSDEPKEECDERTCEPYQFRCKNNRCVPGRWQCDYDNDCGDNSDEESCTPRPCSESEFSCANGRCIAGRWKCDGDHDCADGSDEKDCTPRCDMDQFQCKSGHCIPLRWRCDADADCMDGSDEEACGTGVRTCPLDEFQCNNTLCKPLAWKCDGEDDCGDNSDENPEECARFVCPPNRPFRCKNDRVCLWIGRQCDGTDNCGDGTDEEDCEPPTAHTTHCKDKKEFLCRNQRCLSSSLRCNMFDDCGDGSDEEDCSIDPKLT

In US20220332813A1:

Assays:
[1] = target: LRP1 cluster II (Homo sapiens (Human)) (UniProt Q07954); assay: SPR, LRP1 cluster II immobilised, single cycle
[2] = target: full-length human LRP1 (purified) (human) (UniProt Q07954); assay: SPR, LRP1 immobilised, equilibrium fit of Req
[3] = target: LRP1 cluster III (Homo sapiens (Human)) (UniProt Q07954); assay: SPR, LRP1 cluster III immobilised, single cycle
[4] = target: LRP1 cluster IV (Homo sapiens (Human)) (UniProt Q07954); assay: SPR, LRP1 cluster IV immobilised, single cycle
[5] = target: full-length human LRP1 (purified) (human) (UniProt Q07954); assay: SPR, full-length LRP1 immobilised

Kd [1] [nM] | Kd [2] [nM] | Kd [3] [nM] | Kd [4] [nM] | Kd [5] [nM] | Substance
69 | 60 | 52 | 81 | – | human recombinant tau (2N4R) (from UniProt P10636 1-441) (ligand)
– | – | – | – | 243 | hyperphosphorylated 2N4R tau produced by Sf9 cells (from UniProt P10636 1-441) (ligand; hyperphosphorylated (produced in Sf9 insect cells, intermediate phosphorylation state); sites not stated)
